Experimental data: patent US20260027101A1, “BACTERIAL TOPOISOMERASE INHIBITORS” (priority 2022, published 2026)
Values after ≈ are worked out from the molar mass of the structure shown.

Key:
[1] = tested on: Pseudomonas aeruginosa ATCC 27853; assay: MIC, Pseudomonas aeruginosa ATCC 27853; assay type: cell-based; conditions: ATCC27853, read-out: MIC against Pseudomonas aeruginosa ATCC 27853, strain ATCC 27853
[2] = tested on: Acinetobacter baumanii ATCC 19606; assay: MIC, Acinetobacter baumanii ATCC 19606; assay type: cell-based; conditions: Acinetobacter baumannii, ATCC19606, read-out: MIC against Acinetobacter baumanii ATCC 19606, strain ATCC 19606
[3] = tested on: Salmonella enterica ATCC 14028; assay: MIC, Salmonella enterica ATCC 14028; assay type: cell-based; conditions: ATCC14028, read-out: MIC against Salmonella enterica ATCC 14028
[4] = tested on: Staphylococcus aureus CF isolate; assay: MIC, S. aureus cystic fibrosis isolate (CLSI); conditions: read-out: MIC against Staphylococcus aureus CF isolate, isolate from individual with cystic fibrosis
[5] = tested on: Staphylococcus aureus ATCC 29213; assay: MIC, S. aureus ATCC 29213 (CLSI); assay type: cell-based; conditions: ATCC29213, read-out: MIC against Staphylococcus aureus ATCC 29213, strain ATCC 29213, triplicate
[6] = tested on: Escherichia coli ATCC 25922; assay: MIC, Escherichia coli ATCC 25922; assay type: cell-based; conditions: ATCC25922, read-out: MIC against Escherichia coli ATCC 25922, strain ATCC 25922

`COc1ccc2ncc(F)c(CCN3CCC(C(O)C(O)c4ccc(C)cc4)CC3)c2n1` (single isomer, unassigned) [Example 13, 1-(1-(2-(3-fluoro-6-methoxy-1,5-naphthyridin-4-yl)ethyl)piperidin-4-yl)-2-(p-tolyl)ethane-1,2-diol] was tested, and the MIC [1] was greater than 64 µg/mL.
Molecule `COc1ccc2ncc(F)c(CCN3CCC(/C=C/c4ccc(C)cc4)CC3)c2n1` [Example 1, (E)-7-fluoro-2-methoxy-8-(2-(4-(4-methylstyryl)piperidin-1-yl)ethyl)-1,5-naphthyridine] has an MIC [2] of 64 µg/mL (≈ 158 µM), an MIC [1] greater than 64 µg/mL and an MIC [3] greater than 64 µg/mL. The MIC [4] was 0.5 to 2 µg/mL (≈ 1.23 to 4.93 µM) and the MIC [5] was 0.25 to 0.5 µg/mL (≈ 0.616 to 1.23 µM).
For `COc1ccc2ncc(F)c(CCN3CCC([C@H](O)[C@@H](O)c4ccc(C)cc4)CC3)c2n1` [Example 7, (1S,2S)-1-(1-(2-(3-fluoro-6-methoxy-1,5-naphthyridin-4-yl)ethyl)piperidin-4-yl)-2-(p-tolyl)ethane-1,2-diol], the MIC [1] was greater than 64 µg/mL.
`COc1ccc2ncc(F)c(CCN3CCC(/C=C\c4ccc(C)cc4)CC3)c2n1` [Example 10, (Z)-7-fluoro-2-methoxy-8-(2-(4-(4-methylstyryl)piperidin-1-yl)ethyl)-1,5-naphthyridine] showed an MIC [1] greater than 64 µg/mL, an MIC [3] greater than 64 µg/mL and an MIC [4] of 4 to 8 µg/mL (≈ 9.86 to 19.7 µM). The MIC [5] was 4 to 8 µg/mL (≈ 9.86 to 19.7 µM).
In the case of `COc1ccc2ncc(F)c(CCN3CCC(CCc4ccc(C)cc4)CC3)c2n1` [Example 19, 7-fluoro-2-methoxy-8-(2-(4-(4-methylphenethyl)piperidin-1-yl)ethyl)-1,5-naphthyridine], the MIC [1] is reported as greater than 64 µg/mL and the MIC [3] is reported as greater than 64 µg/mL.
For `COc1ccc2ncc(F)c(CCN3CCC(CCc4ccc5c(c4)OCCO5)CC3)c2n1` [Example 20, 8-(2-(4-(2-(2,3-dihydrobenzo[b][1,4]dioxin-6-yl)ethyl)piperidin-1-yl)ethyl)-7-fluoro-2-methoxy-1,5-naphthyridine], the MIC [1] was greater than 64 µg/mL and the MIC [3] was 64 µg/mL (≈ 142 µM).
In the case of `COc1ccc2ncc(F)c(CCN3CCC(CCc4ccc5c(c4)NC(=O)CO5)CC3)c2n1` [Example 21, 6-(2-(1-(2-(3-fluoro-6-methoxy-1,5-naphthyridin-4-yl)ethyl)piperidin-4-yl)ethyl)-2H-benzo[b][1,4]oxazin-3(4H)-one], the MIC [1] is reported as 32 µg/mL (≈ 68.9 µM).
`COc1ccc2ncc(F)c(CCN3CCC(C(O)Cc4ccc(C)cc4)CC3)c2n1` (stereo not shown) [Example 25, 1-(1-(2-(3-fluoro-6-methoxy-1,5-naphthyridin-4-yl)ethyl)piperidin-4-yl)-2-(p-tolyl)ethan-1-ol] gave an MIC [1] greater than 64 µg/mL, an MIC [3] of 64 µg/mL (≈ 151 µM) and an MIC [4] of 0.25 to 0.5 µg/mL (≈ 0.59 to 1.18 µM).
In the case of `COc1ccc2ncc(F)c(CCN3CCC(C(O)Cc4ccc5c(c4)OCCO5)CC3)c2n1` (stereo not shown) [Example 26, 2-(2,3-dihydrobenzo[b][1,4]dioxin-6-yl)-1-(1-(2-(3-fluoro-6-methoxy-1,5-naphthyridin-4-yl)ethyl)piperidin-4-yl)ethan-1-ol], the MIC [1] is reported as 64 µg/mL (≈ 137 µM).
For `COc1ccc2ncc(F)c(CCN3CCC(C(N)Cc4ccc(C)cc4)CC3)c2n1` (stereo not shown) [Example 28, 1-(1-(2-(3-fluoro-6-methoxy-1,5-naphthyridin-4-yl)ethyl)piperidin-4-yl)-2-(p-tolyl)ethan-1-amine], the MIC [2] was 16 µg/mL (≈ 37.9 µM) and the MIC [6] was 16 µg/mL (≈ 37.9 µM).
Molecule `COc1ccc2ncc(F)c(CCN3CCC(C(N)Cc4ccc5c(c4)OCCO5)CC3)c2n1` (stereo not shown) [Example 29, 2-(2,3-dihydrobenzo[b][1,4]dioxin-6-yl)-1-(1-(2-(3-fluoro-6-methoxy-1,5-naphthyridin-4-yl)ethyl)piperidin-4-yl)ethan-1-amine] has an MIC [2] of 16 µg/mL (≈ 34.3 µM) and an MIC [1] of 64 µg/mL (≈ 137 µM).
Work on `COc1ccc2ncc(F)c(CCN3CCC(C(N)Cc4ccc5c(c4)NC(=O)CO5)CC3)c2n1` (stereo not shown) [Example 30, 6-(2-amino-2-(1-(2-(3-fluoro-6-methoxy-1,5-naphthyridin-4-yl)ethyl)piperidin-4-yl)ethyl)-2H-benzo[b][1,4]oxazin-3(4H)-one] yielded an MIC [1] of 64 µg/mL (≈ 133 µM), an MIC [3] of 32 µg/mL (≈ 66.7 µM) and an MIC [4] of 8 µg/mL (≈ 16.7 µM). It also gave an MIC [6] of 8 µg/mL (≈ 16.7 µM).
